Reference: PMC7036995 (Molecules, 2020)

Protein sequences, listed by entry. Tags and fused reporters are not part of them. Residues count along the entry.
UniProt P02768, 25-609: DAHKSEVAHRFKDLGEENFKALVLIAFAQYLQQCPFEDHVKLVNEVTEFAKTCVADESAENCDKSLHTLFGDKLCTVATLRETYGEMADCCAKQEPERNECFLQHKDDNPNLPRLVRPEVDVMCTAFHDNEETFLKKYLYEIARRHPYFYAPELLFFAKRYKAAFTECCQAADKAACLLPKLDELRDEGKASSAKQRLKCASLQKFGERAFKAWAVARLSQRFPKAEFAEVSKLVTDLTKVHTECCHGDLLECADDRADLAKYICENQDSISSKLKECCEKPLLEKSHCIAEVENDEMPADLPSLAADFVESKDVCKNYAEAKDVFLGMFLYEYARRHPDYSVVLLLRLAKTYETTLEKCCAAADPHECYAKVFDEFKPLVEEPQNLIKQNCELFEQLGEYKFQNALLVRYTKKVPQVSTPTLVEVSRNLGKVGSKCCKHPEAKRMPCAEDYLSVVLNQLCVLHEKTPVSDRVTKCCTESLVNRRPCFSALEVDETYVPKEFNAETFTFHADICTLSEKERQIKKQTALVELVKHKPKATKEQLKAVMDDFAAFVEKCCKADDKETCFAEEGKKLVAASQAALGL

Molecular target: human serum albumin (HSA) (Homo sapiens, UniProt P02768)
Conditions: ratio protein:ligand 1:4; HSA 1 μM, T = 310.15 K, pH 7.4

O=c1c(O)c(-c2ccc(O)c(O)c2)oc2cc(O)cc(O)c12 [quercetin]
α-Helix Content: 66.3 ± 1.5%
